The chains behind the UniProt entries cited, without tags or fusion partners. Residues count along the entry.
UniProt P0C6X6, 3247-3549 limits assumed: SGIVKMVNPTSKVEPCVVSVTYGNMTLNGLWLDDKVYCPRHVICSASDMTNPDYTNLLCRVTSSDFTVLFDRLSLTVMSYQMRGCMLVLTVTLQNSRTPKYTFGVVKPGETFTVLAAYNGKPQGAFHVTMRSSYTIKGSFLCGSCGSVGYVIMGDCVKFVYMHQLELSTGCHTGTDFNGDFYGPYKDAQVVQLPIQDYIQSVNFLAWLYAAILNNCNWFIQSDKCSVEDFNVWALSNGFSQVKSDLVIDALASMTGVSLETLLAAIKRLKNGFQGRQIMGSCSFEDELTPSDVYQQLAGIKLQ
UniProt P0C6X1, 2966-3267 limits assumed: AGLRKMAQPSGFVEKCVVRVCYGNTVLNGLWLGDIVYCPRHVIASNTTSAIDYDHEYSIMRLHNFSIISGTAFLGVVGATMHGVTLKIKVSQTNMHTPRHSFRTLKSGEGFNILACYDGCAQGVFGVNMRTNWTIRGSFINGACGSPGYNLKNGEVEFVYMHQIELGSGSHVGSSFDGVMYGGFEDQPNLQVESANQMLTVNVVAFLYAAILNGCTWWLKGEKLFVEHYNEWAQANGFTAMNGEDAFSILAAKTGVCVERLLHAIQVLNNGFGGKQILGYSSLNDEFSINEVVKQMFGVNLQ

In patent US20240158368A1, “Pyrrolidine Main Protease Inhibitors as Antiviral Agents” (AbbVie Inc., priority 2022, published 2024):

Key:
OC43 Mpro = OC43 Mpro (Human coronavirus OC43 (HCoV-OC43), UniProt P0C6X6); assay type: biochemical
229E Mpro = 229E Mpro (Human coronavirus 229E (HCoV-229E), UniProt P0C6X1); assay type: biochemical
SARS-CoV-2 Mpro = SARS-CoV-2 Mpro (Severe acute respiratory syndrome coronavirus 2 (2019-nCoV) (SARS-CoV-2), UniProt P0DTD1); settings: read-out: SARS-CoV-2 EC50

Row | SMILES | EC50 (OC43 Mpro) [nM] | EC50 (229E Mpro) [nM] | EC50 (SARS-CoV-2 Mpro) [nM]
1 | N#Cc1cc(C(=O)N2CCOCC2)c(N2CC[C@H](NC(=O)c3cc(=O)[nH]c4c(F)cccc34)C2)c(C(F)(F)F)c1 [Compound 4] | 241 | 39.8 | 8.72
2 | O=C(N[C@H]1CCN(c2c(C(=O)N3CCOCC3)cc(Br)cc2C(F)(F)F)C1)c1cc(=O)[nH]c2c(F)cccc12 [Compound 47] | 138 | 117 | 9.9
